Measured values published in PubChem BioAssay AID463190 (Sanford-Burnham Center for Chemical Genomics, 2010).
The entries are a selection whose mix differs from that of the whole data set. Some structures show a salt or complex split into parts, the way the source records it. Activity calls are given as the source filed them.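 The calls were made as follows: active = inhibition of at least 40%; inactive = the rest.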

Experiment: growth inhibitors of tim10-1 mutant yeast, primary screen, luminescence, uHTS (AID 463190);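 also: mutant grown at 25 °C; 0% = DMSO wells with yeast and 100% = wells holding no yeast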
Details: S. cerevisiae tim10-1 ts strain growth, BacTiter-Glo, 24 h; at 20 µM; stronger effect = higher value

Compound	inhibition
Cc1ccccc1NP(C)(=O)Nc1ccccc1C	inactive: 22%
CP(=O)(Nc1ccc2c(c1)OCCO2)Oc1ccccc1 (configuration not stated)	inactive: 0.061%
CCOP(C)(=S)SCC(=O)NC(C)(CC)C(=O)O (configuration not stated)	inactive: 1.56%
CP(=O)(Nc1ccc(SC(F)(F)F)cc1)Oc1ccc(F)cc1 (configuration not stated)	inactive: 3.76%
O=[N+]([O-])c1cc([N+](=O)[O-])c(NCC2CCS(=O)(=O)C2)c([N+](=O)[O-])c1 (configuration not stated)	inactive: 14.1%
COc1ccc(NP(C)(=O)Oc2ccccc2OC)cc1 (configuration not stated)	inactive: -3.24%
CN(C)CCOC(=O)C(O)(c1ccccc1)C1CCCCC1 (configuration not stated)	inactive: -10%
COc1ccc(OP(C)(=O)Nc2cccc(Br)c2)cc1 (configuration not stated)	inactive: 28.4%
O=[N+]([O-])c1cc([N+](=O)[O-])c(OC2CCCCC2O)c([N+](=O)[O-])c1 (configuration not stated)	inactive: 7.67%
CCCCCOc1ccc(NP(C)(=O)Oc2ccc(Cl)cc2Cl)cc1 (configuration not stated)	active: 41.2%
CP(=O)(Nc1ccccc1)Oc1ccc(F)cc1 (configuration not stated)	inactive: -12.6%
CCN(CC)CCCOC(=O)C(O)(c1ccccc1)C1CCCCC1 (configuration not stated)	inactive: -3.96%
COc1ccc(OP(C)(=O)Nc2ccc(SC(F)(F)F)cc2)cc1 (configuration not stated)	inactive: 3.76%
CCOC(=O)c1ccc(NP(C)(=O)Oc2ccc(F)cc2)cc1 (configuration not stated)	inactive: -1.04%
COc1ccc2c(c1O)-c1c(O)c(OC)cc3c1[C@H](C2)[N+](C)(C)CC3.O=[N+]([O-])c1cc([N+](=O)[O-])c([O-])c([N+](=O)[O-])c1[O-]	inactive: 2.24%
O=C(OCCN1CCN(CCOCc2ccccc2)CC1)C(O)(c1ccccc1)c1ccccc1	inactive: 10.8%
O=C(OC1CN2CCC1CC2)c1ccc([N+](=O)[O-])cc1 (configuration not stated)	inactive: -93.2%
CC(C)c1ccc(OP(C)(=O)Nc2ccc(SC(F)(F)F)cc2)cc1 (configuration not stated)	inactive: 38.1%
CP(=O)(Nc1ccccc1F)Oc1ccccc1 (configuration not stated)	inactive: 14%
CCc1ccc(OP(C)(=O)O)cc1	inactive: -9.05%
CP(=O)(Nc1ccccn1)Oc1ccccc1 (configuration not stated)	inactive: 18.4%
COc1ccccc1OP(C)(=O)Nc1ccc(C)cc1C (configuration not stated)	inactive: 13.3%

Compound	inhibition
O=[N+]([O-])c1cc([N+](=O)[O-])c(Nc2ccccn2)c([N+](=O)[O-])c1	active: 59.2%
Cc1c(NP(C)(=O)Oc2ccc(C(C)C)cc2)c(=O)n(-c2ccccc2)n1C (configuration not stated)	inactive: -8.35%
CN(C)CCOC(=O)C(O)(c1ccccc1)C1CCCC1 (configuration not stated)	inactive: 14.7%
COc1ccc(OP(C)(=O)Nc2ccccn2)cc1 (configuration not stated)	inactive: 11.5%
COc1ccccc1OP(C)(=O)Nc1ccc(Br)cc1 (configuration not stated)	inactive: -7.96%
CP(=O)(OCCOc1ccccc1)OCCOc1ccccc1	inactive: 20.5%
CP(=O)(Nc1ccc(Cl)cc1Cl)Oc1ccccc1 (configuration not stated)	inactive: 27.3%
Cc1nc2ccc3ccccc3c2o1.O=[N+]([O-])c1cc([N+](=O)[O-])c(O)c([N+](=O)[O-])c1	inactive: 34%
COc1ccc(OP(C)(=O)Nc2ccccc2Br)cc1 (configuration not stated)	inactive: -4.3%
COc1ccccc1OP(C)(=O)Nc1ccc(C)c(C)c1 (configuration not stated)	inactive: -1.74%
Cc1cc(C)cc(OP(C)(=O)Nc2cccc(C(F)(F)F)c2)c1 (configuration not stated)	inactive: 24.6%
CP(=O)(OC12CC3CC(CC(C3)C1)C2)OC12CC3CC(CC(C3)C1)C2	active: 45.6%
CCOC(=O)c1ccc(NP(C)(=O)Oc2ccc(Cl)cc2)cc1 (configuration not stated)	inactive: 11.4%
Nc1ccc2c(ccc3cccnc32)n1.O=[N+]([O-])c1cc([N+](=O)[O-])c(O)c([N+](=O)[O-])c1	inactive: -10.9%
CN(C)C(=O)c1c([N+](=O)[O-])cc([N+](=O)[O-])cc1[N+](=O)[O-]	inactive: 19.7%
CP(=O)(Nc1ccc(Cl)cc1)Oc1ccc(F)cc1 (configuration not stated)	inactive: 25.5%
CC(C)(C)c1ccc(OP(C)(=O)O)cc1	inactive: -4.53%
COc1ccccc1OP(C)(=O)Nc1ccccc1Br (configuration not stated)	inactive: 18.9%
CP(=O)(Oc1ccccc1)N1CCOC1=O (configuration not stated)	inactive: 0.628%
CCc1ccc(OP(C)(=O)Nc2cccnc2)cc1 (configuration not stated)	inactive: 9.43%
COc1ccccc1OP(C)(=O)Nc1c(C)n(C)n(-c2ccccc2)c1=O (configuration not stated)	inactive: 5.82%
O=C(OCCCN1CCCC1)C(O)(c1ccccc1)C1CCCCC1 (configuration not stated)	inactive: 1.01%

Compound	inhibition
CCN(CC)CC(O)COC(=O)C(O)(c1ccccc1)C1CCCCC1 (configuration not stated)	inactive: -6.99%
COc1ccc(OP(C)(=O)Nc2ccc(Br)cc2)cc1 (configuration not stated)	inactive: 15.4%
CP(=O)(Nc1ccccn1)Oc1ccc(Cl)cc1 (configuration not stated)	inactive: -14.7%
CCOP(C)(=S)SCC(=O)NC(C)C(=O)O (configuration not stated)	inactive: 6.57%
O=[N+]([O-])c1cc([N+](=O)[O-])c(O)c([N+](=O)[O-])c1.c1ccc(Oc2ccncc2)cc1	inactive: 3.32%
CCOC(=O)c1ccc(NP(C)(=O)Oc2ccc(OC)cc2)cc1 (configuration not stated)	inactive: 13.1%
CCc1ccc(OP(C)(=O)N2CCN(c3ccc([N+](=O)[O-])cc3)CC2)cc1 (configuration not stated)	inactive: 30.1%
CP(=O)(NC(=O)Nc1ccccc1)Oc1ccccc1 (configuration not stated)	inactive: -3.13%
Cc1cc(C)cc(OP(C)(=O)Nc2ccc(SC(F)(F)F)cc2)c1 (configuration not stated)	inactive: 23.6%
CP(=O)(Nc1ccc(SC(F)(F)F)cc1)Oc1ccc(Cl)cc1 (configuration not stated)	inactive: -5.75%
Cc1cccc(C)c1OP(C)(=O)Nc1ccc(SC(F)(F)F)cc1 (configuration not stated)	inactive: 28.5%
CP(=O)(Oc1ccccc1)OC(c1ccccc1)C(F)(F)F (configuration not stated)	inactive: 0.534%
COc1ccccc1OP(C)(=O)Nc1ccccc1 (configuration not stated)	inactive: 5.24%
CP(=O)(Nc1ccccc1Br)Oc1ccccc1 (configuration not stated)	inactive: -7.31%
CP(=S)(Nn1cnnc1)Oc1ccccc1 (configuration not stated)	inactive: -10.6%
COc1ccccc1OP(C)(=O)Nc1cc(Cl)ccc1C (configuration not stated)	inactive: 9.91%
COc1ccc(OP(C)(=O)Nc2cccc(F)c2)cc1 (configuration not stated)	inactive: 6.68%
Cc1cc(C)cc(OP(C)(N)=O)c1 (configuration not stated)	inactive: -8.83%
CCOC(=O)c1ccc(NP(C)(=O)Oc2ccccc2)cc1 (configuration not stated)	inactive: 5.88%
COc1ccccc1OP(C)(=O)Nc1ccc(C)cc1 (configuration not stated)	inactive: 10.6%
Cc1ccc(NP(C)(=O)Oc2ccccc2)c(C)c1 (configuration not stated)	inactive: 13.4%
CC(C)(C)c1ccc(OP(C)(=O)Nc2ccc(SC(F)(F)F)cc2)cc1 (configuration not stated)	active: 45.6%

Compound	inhibition
Cc1cccc(C)c1OP(C)(N)=O (configuration not stated)	inactive: -3%
O=[N+]([O-])c1cc([N+](=O)[O-])c(Nc2cccnc2)c([N+](=O)[O-])c1	active: 55.8%
CCN(CC)CCCOC(=O)C(O)(c1ccccc1)c1ccccc1	inactive: 5.55%
CP(=O)(Nc1cccc(Br)c1)Oc1ccccc1 (configuration not stated)	inactive: 3%
Cc1cc(C)cc(OP(C)(=O)Nc2ccccn2)c1 (configuration not stated)	inactive: 16.4%
Cc1ccc(C)c(NP(C)(=O)Oc2ccccc2)c1 (configuration not stated)	inactive: 10.5%
Cc1cc(C)cc(OP(C)(=O)Nc2ccc(C)cc2C)c1 (configuration not stated)	inactive: 6.86%
CCOC(=O)c1ccc(NP(C)(=O)Oc2cc(C)cc(C)c2)cc1 (configuration not stated)	inactive: 25.7%
COc1ccccc1OP(C)(=O)Nc1cccc(Br)c1 (configuration not stated)	inactive: 6.92%
CC1=NCCc2c1[nH]c1ccccc21.O=[N+]([O-])c1cc([N+](=O)[O-])c(O)c([N+](=O)[O-])c1	inactive: 11.6%
O=C(O)c1cccc(Nc2c([N+](=O)[O-])cc([N+](=O)[O-])cc2[N+](=O)[O-])c1	inactive: -2.21%
CP(=O)(Nc1ccc(SC(F)(F)F)cc1)Oc1ccccc1 (configuration not stated)	inactive: 10.5%
CCCOc1ccc(NP(C)(=O)Oc2ccc(Cl)cc2)cc1 (configuration not stated)	inactive: 38.3%
CN1CCCCC1COC(=O)C1(O)c2ccccc2CCc2ccccc21 (configuration not stated)	inactive: 11.2%
COc1ccccc1OP(C)(=O)Nc1c(C)cccc1C (configuration not stated)	inactive: 15%
O=[N+]([O-])c1cc([N+](=O)[O-])c(Nc2nnnn2CCO)c([N+](=O)[O-])c1	inactive: -10.7%
CC1=C2N=C(C=C3N=C(C(C)=C4[N-][C@@](C)([C@@H]5N=C1[C@](C)(CCC(=O)NC[C@@H](C)OP(=O)([O-])O[C@H]1[C@@H](O)[C@@H](n6cnc7cc(C)c(C)cc76)O[C@@H]1CO)[C@H]5CC(N)=O)[C@@](C)(CC(N)=O)[C@@H]4CCC(N)=O)[C@@](C)(CC(N)=O)[C@@H]3CCC(N)=O)C(C)(C)[C@@H]2CCC(N)=O.[C-]#N.[Co+3]	inactive: 8.9%
CCOC(=O)C(CC)C1=NC(C)(C)Cc2ccccc21.O=[N+]([O-])c1cc([N+](=O)[O-])c(O)c([N+](=O)[O-])c1 (configuration not stated)	inactive: 20.9%
Cc1nc2ccc3ccccc3c2s1.O=[N+]([O-])c1cc([N+](=O)[O-])c(O)c([N+](=O)[O-])c1	inactive: 12.3%
O=[N+]([O-])c1cc([N+](=O)[O-])c(-c2cnn(-c3ccccc3)c2)c([N+](=O)[O-])c1	inactive: -6.7%
O=[N+]([O-])c1cc([N+](=O)[O-])c(-n2nnc3ccccc32)c([N+](=O)[O-])c1	inactive: 16%
